Data on one substance can be found in patent publication US6750212B2, “Photochemotherapeutic compositions” (PhotoCure AS, priority 1997, dated 2004).

The data set is described as follows: Oedema after lamp PDT of WiDr tumours in nude mice. The note with it: Example 5.3; high dose A1PcS4 5 mg/kg i.v. Type of data set: in vivo, Balb/c nu/nu nude mice. As for the experimental part:
The ethanol was used as the control treatment since the ALA butyl ester formulation contained approx. 2% of ethanol. Mice were irradiated one hour after injection and responses of the tumours were evaluated as regression/regrowth time according to Example 5.1.

Consider “Aluminium phthalocyanine tetra-sulfonate [A1PcS4]”, for which the oedema result was “development of a large oedema”.
